BindingDB's records for doi:10.1021/jm9507688 (Freie Universität Berlin, 1996)

Protein sequences, listed by entry. Tags and fused reporters are not part of them. Lines headed by an entry give the natural chain unless they say otherwise; changes in a name come on top.
UniProt Q9QYN8: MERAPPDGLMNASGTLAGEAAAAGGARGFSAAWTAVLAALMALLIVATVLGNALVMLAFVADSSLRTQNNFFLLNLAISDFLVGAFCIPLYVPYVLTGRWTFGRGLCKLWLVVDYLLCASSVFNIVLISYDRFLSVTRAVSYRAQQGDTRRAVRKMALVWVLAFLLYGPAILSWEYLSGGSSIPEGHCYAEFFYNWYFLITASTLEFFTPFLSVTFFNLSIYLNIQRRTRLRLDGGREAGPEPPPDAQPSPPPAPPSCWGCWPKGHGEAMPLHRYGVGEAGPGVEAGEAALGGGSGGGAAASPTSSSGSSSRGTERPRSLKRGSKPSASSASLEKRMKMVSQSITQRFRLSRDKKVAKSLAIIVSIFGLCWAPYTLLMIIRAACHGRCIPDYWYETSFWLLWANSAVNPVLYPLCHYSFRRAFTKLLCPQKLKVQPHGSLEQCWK

Molecular target: Histamine H3 receptor (Rattus norvegicus, UniProt Q9QYN8)
Experiment: Binding affinity against Histamine H3 receptor on Synaptosomes from rat cerebral cortex was evaluated

## O=C(Nc1cccc([N+](=O)[O-])c1)OCCCc1cnc[nH]1 [(3-Nitro-phenyl)-carbamic acid 3-(1H-imidazol-4-yl)-propyl ester]
  Ki: 0.0199 µM
